Results reported in ChEMBL document CHEMBL3351716, “Targeting the androgen receptor with steroid conjugates” (J Med Chem, 2014).

Tested on: LNCaP
Assay: Antitumor activity against human LNCAP cells xenografted in immunocompromised mouse assessed as tumor growth inhibition at 30 mg/kg, ip for 5 days a week for 7 consecutive weeks relative to vehicle-treated control

Q: With ClCCN(CCCl)c1ccccc1 as the compound, how does the TGI read?
A: The TGI was 90%.
